Results published in CN116265487A (SANYOU BIO INC, dated 2023).

B1: BsAb14 (bispecific antibody)
chain 1: not shown
chain 2: EIVLTQSPATLSLSPGERATLSCRASQSVSSYLAWYQQKPGQAPRLLIYGPSNRATGIPDRFSGGGSGTDFTLTISRLEPEDFAVYYCQHYGVSQHTFGQGTKLEIKRTVAAPSVFIFPPSDEQLKSGTASVVCLLNNFYPREAKVQWKVDNALQSGNSQESVTEQDSKDSTYSLSSTLTLSKADYEKHKVYACEVTHQGLSSPVTKSFNRGEC
B2: BsAb30 (bispecific antibody)
chain 1: not shown
chain 2: EVQLVESGGGLVQPGGSLRLSCAASGFGLDYYAIGWFRQAPGKEREGVSCIGSSSKETNYADSVKGRFTISRDNAKNTVYLQMNSLRAEDTAVYYCTAGSPLCLISLQDHYGLYEYDYWGQGTLVTVSSGGGGSGGGGSGGGGSEIVLTQSPATLSLSPGERATLSCRASQSVSSYLAWYQQKPGQAPRLLIYGPSNRATGIPDRFSGGGSGTDFTLTISRLEPEDFAVYYCQHYGVSQHTFGQGTKLEIKRTVAAPSVFIFPPSDEQLKSGTASVVCLLNNFYPREAKVQWKVDNALQSGNSQESVTEQDSKDSTYSLSSTLTLSKADYEKHKVYACEVTHQGLSSPVTKSFNRGEC
B3: BsAb14-LALA (bispecific antibody)
chain 1: not shown
chain 2: B1 chain 2

target: T1, 生物素标记的hANG2-Fc蛋白 (human, biotin-labelled (sites not given)); assay: FACS blocking of biotin-hANG2-Fc binding to huTie2-HEK293 cells
T1 construct: also called biotin-hANG2-Fc

IC50 [nM]	Binder
0.415	B1
0.362	B2
0.411	B3
